Earlier results, collected in patent US6602296B1, “Chemical supplementation of bone” (The University of Western Australia, priority 1997, dated 2003).

Settings: after intravenous administration; cited from earlier work

**Q.** Which “recommended peak serum concentration” value does the source give for gentamicin Sulphate here?
**A.** The value was 10 mg/L.
